Key:
[1] = biological target: delta opioid receptor (Rattus norvegicus, UniProt P33533); test: Radioligand binding assay for opioid receptor subtypes, 3H-DPDPE; conditions: read-out: IC50 3H-DPDPE (delta), rat brain, 3H-DPDPE 3 nM, 25° C.
Procedure: (§1) Radioligand binding assays for opioid receptor subtypes
(§2) Opioid mu and delta receptor binding assays were performed with rat brain membranes using ^3 H-DAMGO ([D-Ala^2, Me-Phe^4, Gly-ol^5 ]enkephalin, 1 nM) and ^3 H-DPDPE ([D-Pen^2, D-Pen^5 ]enkephalin, 3 nM) as the selective radioligand, respectively (Slater and Cross, 1991, Methods in Neurosciences ed. P.M. Conn. Academic Press, vol. 5 pp.459-478). Kappa receptor binding assays were performed with guinea pig brain membranes using ^3 H-U69593 (5 alpha, 7 alpha, 8 beta)-(+)-N-Methyl-N-[7-(1-pyrrolinyl)-1-oxaspiro[4,5]dec-8-yl]benzene-acetamide, 5 nM) as the radioligand. Brain membrane preparation and radioligand binding assays were performed similarly to those for ^3 H-naloxone binding assay with the exception as noted below. Some protease inhibitors (bacitracin 20 μg/ml, soybean trypsin inhibitor 50 μg/ml and leupeptin 10 μg/ml) were added to the binding assay buffer for ^3 H-DAMGO and ^3 H-DPDPE binding assays. Binding assays were carried out at 25° C. for 1 hour (^3 H-DAMGO and ^3 H-U69593) and 3 hours (^3 H-DPDPE). Nonspecific binding was determined in the presence of 1 μM of naloxone. The selectivity of representative compounds of the present invention on opioid receptor subtypes are shown below in Table 7.

Sequences of proteins named here, by UniProt entry; tags and fusion partners are left off.
UniProt P33533, whole entry: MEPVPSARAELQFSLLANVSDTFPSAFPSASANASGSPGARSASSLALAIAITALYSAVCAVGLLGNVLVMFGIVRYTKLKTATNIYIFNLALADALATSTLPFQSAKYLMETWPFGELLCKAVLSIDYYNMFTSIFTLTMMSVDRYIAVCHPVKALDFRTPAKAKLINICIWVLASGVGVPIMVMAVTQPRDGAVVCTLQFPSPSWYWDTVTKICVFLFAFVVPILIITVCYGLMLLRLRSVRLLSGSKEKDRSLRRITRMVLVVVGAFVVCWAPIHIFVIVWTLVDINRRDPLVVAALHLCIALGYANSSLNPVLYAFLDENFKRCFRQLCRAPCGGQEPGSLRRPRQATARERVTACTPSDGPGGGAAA
UniProt P33535, whole entry: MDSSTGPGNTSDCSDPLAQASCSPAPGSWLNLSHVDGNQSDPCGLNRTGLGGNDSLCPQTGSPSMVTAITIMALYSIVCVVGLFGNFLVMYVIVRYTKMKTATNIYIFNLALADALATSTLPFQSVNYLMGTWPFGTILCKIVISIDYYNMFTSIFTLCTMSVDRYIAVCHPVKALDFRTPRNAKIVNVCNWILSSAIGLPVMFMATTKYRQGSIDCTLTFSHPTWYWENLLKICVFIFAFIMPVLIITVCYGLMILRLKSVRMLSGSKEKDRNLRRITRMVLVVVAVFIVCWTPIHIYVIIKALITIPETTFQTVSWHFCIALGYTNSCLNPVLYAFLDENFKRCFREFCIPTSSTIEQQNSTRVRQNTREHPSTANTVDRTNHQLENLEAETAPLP
UniProt P41144, whole entry: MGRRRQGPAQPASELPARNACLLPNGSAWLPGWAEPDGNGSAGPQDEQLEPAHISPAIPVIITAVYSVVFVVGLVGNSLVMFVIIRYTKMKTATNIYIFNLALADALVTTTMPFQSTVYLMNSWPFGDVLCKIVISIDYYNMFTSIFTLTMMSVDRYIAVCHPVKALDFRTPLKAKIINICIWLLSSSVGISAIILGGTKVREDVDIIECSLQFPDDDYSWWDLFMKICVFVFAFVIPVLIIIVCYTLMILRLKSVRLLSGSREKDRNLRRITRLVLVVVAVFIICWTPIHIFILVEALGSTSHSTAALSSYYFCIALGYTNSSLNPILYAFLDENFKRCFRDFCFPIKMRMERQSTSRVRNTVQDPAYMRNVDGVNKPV

[2] = biological target: mu opioid receptor (Rattus norvegicus, UniProt P33535); test: Radioligand binding assay for opioid receptor subtypes, 3H-DAMGO; conditions: read-out: IC50 3H-DAMGO (mu); rat brain, 3H-DAMGO 1 nM, 25° C., 1 hour
Procedure: as §1, §2

[3] = biological target: kappa opioid receptor (Cavia porcellus, UniProt P41144); test: Radioligand binding assay for opioid receptor subtypes, 3H-U69593; conditions: read-out: IC50 3H-U69593 (kappa); guinea pig brain, 3H-U69593 5 nM, 25° C., 1 hour
Procedure: as §1, §2

| Compound | IC50 [1] | IC50 [2] | IC50 [3] |
| --- | --- | --- | --- |
| CC(C)(CCCN1C(=O)c2ccccc2S1(=O)=O)N1CCC(n2c(=O)[nH]c3ccccc32)CC1 | 3000 nM | 7.7 nM | 490 nM |
| CCn1c(=O)n(C2CCN(C(C)(C)CCCN3C(=O)c4ccccc4S3(=O)=O)CC2)c2ccccc21 | 4300 nM | 1.9 nM | 1200 nM |

From patent publication US5952351A, “Alpha 1a adrenergic receptor antagonists” (dated 1999)
